Values of other authors in patent US20260034130A1 (priority 2022, published 2026).

System: patients after acute non-cardioembolic ischaemic stroke
Conditions: 10, 20 or 50 mg once daily for 26 to 52 weeks, added to antiplatelet therapy; cited from earlier work

asundexian
composite of major or clinically relevant non-major bleeding compared with placebo: did not increase
